Data taken from ChEMBL document CHEMBL5154925, “Design and Optimization of Thienopyrimidine Derivatives as Potent and Selective PI3Kδ Inhibitors for the Treatment of B-Cell Malignancies” (J Med Chem, 2022).

Assays:
[1] = biological target: T1, Phosphatidylinositol 4,5-bisphosphate 3-kinase catalytic subunit delta isoform (Homo sapiens, UniProt O00329); assay: Inhibition of PI3Kdelta in IgM stimulated human Raji cells incubated for 10 mins by AlphaLISA assay; assay type: cell-based
T1 sequence (O00329 whole entry): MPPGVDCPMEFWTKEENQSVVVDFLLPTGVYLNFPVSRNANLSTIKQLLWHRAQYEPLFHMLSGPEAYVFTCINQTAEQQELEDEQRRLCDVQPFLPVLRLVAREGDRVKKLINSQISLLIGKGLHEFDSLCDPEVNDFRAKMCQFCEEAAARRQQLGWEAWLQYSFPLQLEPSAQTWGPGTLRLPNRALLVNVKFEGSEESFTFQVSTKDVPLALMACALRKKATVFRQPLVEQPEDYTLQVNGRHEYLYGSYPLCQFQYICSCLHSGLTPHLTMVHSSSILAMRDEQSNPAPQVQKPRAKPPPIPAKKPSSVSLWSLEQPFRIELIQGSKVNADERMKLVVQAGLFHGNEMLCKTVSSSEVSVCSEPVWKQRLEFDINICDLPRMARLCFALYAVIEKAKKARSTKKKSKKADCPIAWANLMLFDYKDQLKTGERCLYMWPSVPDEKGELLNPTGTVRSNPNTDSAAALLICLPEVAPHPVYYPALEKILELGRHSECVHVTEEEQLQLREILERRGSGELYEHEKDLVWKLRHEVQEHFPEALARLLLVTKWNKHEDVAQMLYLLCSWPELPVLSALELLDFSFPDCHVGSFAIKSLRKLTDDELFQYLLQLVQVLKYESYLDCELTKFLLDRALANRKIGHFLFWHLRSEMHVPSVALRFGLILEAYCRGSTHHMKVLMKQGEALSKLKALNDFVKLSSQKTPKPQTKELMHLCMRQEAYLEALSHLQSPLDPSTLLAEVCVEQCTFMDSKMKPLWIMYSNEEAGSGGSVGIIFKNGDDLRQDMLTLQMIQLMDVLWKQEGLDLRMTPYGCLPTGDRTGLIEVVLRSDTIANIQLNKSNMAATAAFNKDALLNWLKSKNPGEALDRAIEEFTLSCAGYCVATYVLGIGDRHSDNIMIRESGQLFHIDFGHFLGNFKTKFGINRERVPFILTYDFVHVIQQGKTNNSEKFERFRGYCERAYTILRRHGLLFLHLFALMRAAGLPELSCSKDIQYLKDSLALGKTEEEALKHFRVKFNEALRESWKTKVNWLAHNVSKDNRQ

[2] = biological target: T1, Phosphatidylinositol 4,5-bisphosphate 3-kinase catalytic subunit delta isoform; assay: Inhibition of PI3Kdelta (unknown origin) using PIP2 as substrate measured after 1 hr in presence of ATP by ADP-glo luminescence assay

IC50 [1]: 62.8 nM | IC50 [2]: 1.5 nM
SMILES: CCC(=O)N1CC[C@H](Nc2ncnc3c2CN(c2cnc(OC)c(C(F)(F)F)c2)CC3)C1 [LENIOLISIB]
